27 molecules from PubChem BioAssay AID1487 (National Center for Advancing Translational Sciences (NCATS), 2009) can be followed below.

Molecules are shown by their SMILES. The list shows a part of the results, in another mix than the full data. Records with an inconclusive call do not appear. The source made the active and inactive calls. Calls follow the shape of the dose curve; as a rule, active = well fitted inhibition curve with a large enough effect in the signal ratio, with a control signal flat (not every such curve was filed as active); inconclusive = small, poorly fitted or top-dose-only effect, or effect the other way, or a change in a side signal; inactive = flat fitted curve, though single readings scatter; the % refers to the signal ratio.
% is scaled to controls: 0 for no effect and ±100 for the full control effect.

This test is described as follows: qHTS Assay for Modulators of Lamin A Splicing. Conditions: HeLa LMNA splicing GFP/RFP minigene ratio, 48 h; at 46.1 µM (top of the series) unless noted.
With `COP1(=S)c2c(C)nn(CCC#N)c2N=C(c2ccc(F)cc2)N1C` (configuration not stated), the ratio change, negative = inhibition is inactive: 12.3%.

With `O=C(COc1ccccc1)OC1CN2CCC1CC2` (configuration not stated), the ratio change, negative = inhibition is inactive: 3.14%.

For the molecule `Cc1cc(SC(NC(=O)c2ccccc2)C(Cl)(Cl)Cl)nc(C(C)C)n1` (configuration not stated), the ratio change, negative = inhibition was inactive: -6.96%.

With `Cc1cc(SC(NC=O)C(Cl)(Cl)Cl)ncn1` (configuration not stated), the ratio change, negative = inhibition was inactive: -5.92% [at 46 µM].

Turning to `Cc1ccc2nc3c(c(C)c2c1)CC(C(Cl)Cl)S3` (configuration not stated), the ratio change, negative = inhibition was inactive: -13%.

For `ClCCSc1nnc(-c2cccnc2)o1`, the ratio change, negative = inhibition is inactive: -8.71%.

Consider `O=[N+]([O-])c1cc([N+](=O)[O-])c(-c2ccn[nH]2)s1`, for which the ratio change, negative = inhibition is inactive: 17.6%.

As for `CC(C)NC(=O)NP(=O)(Oc1ccccc1)Oc1ccccc1`, the ratio change, negative = inhibition was inactive: 0.628% [at 46 µM].

Regarding `CCN(CC)C(=S)SC(NC=O)C(Cl)(Cl)Cl` (configuration not stated), the ratio change, negative = inhibition is inactive: 9.18%.

Take `Cc1c2c(nc3ccccc13)SC(C(Cl)Cl)C2` (configuration not stated): the ratio change, negative = inhibition is inactive: -17.3%.

`O=C(OC1CN2CCC1CC2)C12CC3CC(CC(C3)C1)C2` (configuration not stated): the ratio change, negative = inhibition was inactive: 10.8%.

`COc1ccc2nc(NP(=O)(c3ccccc3)c3ccccc3)sc2c1`: the ratio change, negative = inhibition is inactive: -23.7% [at 46 µM].

In the case of `CN(C(=O)Cc1ccc(Cl)c(Cl)c1)[C@@H]1CC[C@]2(CCCO2)C[C@H]1N1CCCC1`, the ratio change, negative = inhibition was inactive: -21.6%.

Consider `Cc1cccc(OCC(=O)OC2CN3CCC2CC3)c1` (configuration not stated), for which the ratio change, negative = inhibition was inactive: 0.439%.

For `Cc1ccc(NCCc2c([N+](=O)[O-])cc([N+](=O)[O-])cc2[N+](=O)[O-])cc1`, the ratio change, negative = inhibition was inactive: -12.4%.

For `COc1cc(C2NCCC3(OCCO3)C2(C)C)cc(OC)c1OC` (configuration not stated), the ratio change, negative = inhibition is inactive: -6.21%.

With `O=P(Nc1nccs1)(c1ccccc1)c1nc2ccccc2s1` (configuration not stated), the ratio change, negative = inhibition was inactive: -8.06%.

For `CCOP1(=S)c2c(C)nn(CCC#N)c2N=C(c2ccccc2F)N1C` (configuration not stated), the ratio change, negative = inhibition was inactive: 7%.

Consider `CCOP1(=S)c2c(C)nn(CCC#N)c2N=C(c2ccc(F)cc2)N1C` (configuration not stated), for which the ratio change, negative = inhibition is inactive: 4.67%.

On to `CN(C(=O)Cc1ccccc1)[C@@H]1CC[C@]2(CCCO2)C[C@H]1N1CCCC1`, for which the ratio change, negative = inhibition is inactive: 10.5%.

On to `O=[N+]([O-])c1ccc2c(c1)nnn2O`, for which the ratio change, negative = inhibition was inactive: 8.49%.

Consider `Cc1nn(-c2ccccc2)c2c1P(=O)(N1CCOCC1)N(C)C(c1ccccc1)=N2` (configuration not stated), for which the ratio change, negative = inhibition was inactive: -1.37%.

In the case of `O=P1(Nc2ncccn2)COc2ccccc2OC1`, the ratio change, negative = inhibition was inactive: 22.4%.

As for `Cc1ccc(OCC(=O)OC2CN3CCC2CC3)cc1` (configuration not stated), the ratio change, negative = inhibition is inactive: -5.28%.

For `O=P1(Nc2ccccn2)COc2ccccc2OC1`, the ratio change, negative = inhibition was inactive: -7.36%.

`Clc1n[nH]nc1-c1nn[nH][15n]1`: the ratio change, negative = inhibition was inactive: -0.0808%.

With `CN(C(=O)Cc1ccc(Cl)c(Cl)c1)[C@@H]1CCCC[C@H]1N1CCCC1`, the ratio change, negative = inhibition was inactive: -6.69% [at 46 µM].
